Target: 3',5'-cyclic-AMP phosphodiesterase 4B (Homo sapiens, UniProt Q07343)
Test: Inhibition of human His6-tagged PDE4B (152-487) expressed in Escherichia coli BL21 (DE3) after 1 hr

The chains behind the UniProt entries cited, without tags or fusion partners. Where a name states a change or a piece, a line headed by the entry shows the natural chain unless it says otherwise.
UniProt Q07343: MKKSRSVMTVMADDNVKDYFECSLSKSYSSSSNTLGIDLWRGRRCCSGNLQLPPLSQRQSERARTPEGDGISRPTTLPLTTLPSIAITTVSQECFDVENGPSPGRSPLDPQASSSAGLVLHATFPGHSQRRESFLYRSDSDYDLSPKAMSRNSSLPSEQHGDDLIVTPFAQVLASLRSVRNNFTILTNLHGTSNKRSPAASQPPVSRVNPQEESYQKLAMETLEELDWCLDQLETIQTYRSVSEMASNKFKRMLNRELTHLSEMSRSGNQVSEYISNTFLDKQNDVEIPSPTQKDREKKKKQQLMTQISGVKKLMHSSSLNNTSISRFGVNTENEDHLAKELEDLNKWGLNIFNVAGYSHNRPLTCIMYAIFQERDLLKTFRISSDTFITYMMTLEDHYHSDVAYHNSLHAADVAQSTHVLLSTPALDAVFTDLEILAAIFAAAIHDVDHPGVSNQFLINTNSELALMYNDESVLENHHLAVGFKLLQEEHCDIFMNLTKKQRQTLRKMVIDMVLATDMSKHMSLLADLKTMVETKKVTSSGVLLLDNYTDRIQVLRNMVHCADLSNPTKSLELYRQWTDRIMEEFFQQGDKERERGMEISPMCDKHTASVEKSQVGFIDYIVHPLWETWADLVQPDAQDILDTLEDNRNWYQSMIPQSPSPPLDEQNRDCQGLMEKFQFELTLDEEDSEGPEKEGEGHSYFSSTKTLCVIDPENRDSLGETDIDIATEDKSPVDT

IC50: 5 nM
Compound: COc1ccc2c(Nc3c(Cl)cncc3Cl)cc(=O)oc2c1OC1CCCC1
